These results are taken from ChEMBL document CHEMBL3228013 (J Med Chem, 1979).

Data set [1] is described as follows: Half life of the compound in 1:1 H2O:ethylalcohol containing at 4 x 10^-2 M NaOH at 1 x 10^-5 M by UV-spectroscopy. The following applies: 10 µM.
Data set [2] is described as follows: Half life of the compound in 1:1 H2O:ethylalcohol containing at 7.50 x 10^-1 M NaOH at 1 x 10^-5 M by UV-spectroscopy. The following applies: 10 µM.
Data set [3] in a line: Half life of the compound in 1:1 H2O:ethylalcohol containing at 1 M NaOH at 1 x 10^-5 M by UV-spectroscopy. To be noted: 10 µM.
A short description of data set [4]: Half life of the compound in 1:1 H2O:ethylalcohol containing at 2 x 10^-2 M NaOH at 1 x 10^-5 M by UV-spectroscopy. To be noted: 10 µM.
A short description of data set [5]: Half life of the compound in 1:1 H2O:ethylalcohol containing at 5 x 10^-1 M NaOH at 1 x 10^-5 M by UV-spectroscopy. The following applies: 10 µM.
A short description of data set [6]: Half life of the compound in 1:1 H2O:ethylalcohol containing at 1 x 10^-1 M NaOH at 1 x 10^-5 M by UV-spectroscopy. The following applies: 10 µM.
A short description of data set [7]: Inhibition of wheat germ orthophosphoric monoester phosphohydrolase using 2-carboxyphenyl phosphate as substrate at 0.3 mM after 2 hrs by UV spectroscopy. The following applies: triticum aestivum, 300 µM.
A short description of data set [8]: Drug metabolism assessed as wheat germ orthophosphoric monoester phosphohydrolase-mediated hydrolysis at 0.3 mM by UV spectroscopy. To be noted: triticum aestivum, 300 µM.
Data set [9] can be described thus: Half life of the compound in 1:1 H2O:ethylalcohol containing at 8.3 x 10^-3 M NaOH at 8.3 x 10^-5 M by UV-spectroscopy. The following applies: 83 µM.

For `NP(=O)(Oc1ccc([N+](=O)[O-])cc1)N(CCCl)CCCl` (centres undefined), the t1/2 was found to be 5.25 min in [1]; 0.317 min in [2]; 0.267 min in data set [3]; 11.7 min in data set [4]; 0.5 min in data set [5]; 2.67 min in data set [6]. This molecule had a t1/2 in [9] of 9.83 min. Further, the “inhibition (INH)” value in [7] is on record as “Not Active”. The Stability entry in data set [8] is reported as “Stable”.
